Activity calls are given as the source filed them. No cut-off for these calls is given here.
What was measured:
[1] = target: T1, Peroxisome proliferator-activated receptor gamma (Homo sapiens, UniProt P37231); experiment: Agonist activity at N-terminal GFP-fused PPARgamma LBD (unknown origin) assessed as biotin-labeled SRC-1 recruitment incubated for 2 hrs by HT-FRET assay
[2] = target: T2, Retinoic acid receptor RXR-gamma (Homo sapiens) (UniProt P48443); experiment: Agonist activity at recombinant human pFA-CMV fused RXRgamma LBD expressed in HEK293T cells transfected with pFR-luciferase plasmid and pRL-SV40 plasmid at 10 uM incubated for 14 to 16 hrs by dual glo luciferase reporter gene assay; format: cell-based; conditions: HEK-293T
T2 sequence (whole entry): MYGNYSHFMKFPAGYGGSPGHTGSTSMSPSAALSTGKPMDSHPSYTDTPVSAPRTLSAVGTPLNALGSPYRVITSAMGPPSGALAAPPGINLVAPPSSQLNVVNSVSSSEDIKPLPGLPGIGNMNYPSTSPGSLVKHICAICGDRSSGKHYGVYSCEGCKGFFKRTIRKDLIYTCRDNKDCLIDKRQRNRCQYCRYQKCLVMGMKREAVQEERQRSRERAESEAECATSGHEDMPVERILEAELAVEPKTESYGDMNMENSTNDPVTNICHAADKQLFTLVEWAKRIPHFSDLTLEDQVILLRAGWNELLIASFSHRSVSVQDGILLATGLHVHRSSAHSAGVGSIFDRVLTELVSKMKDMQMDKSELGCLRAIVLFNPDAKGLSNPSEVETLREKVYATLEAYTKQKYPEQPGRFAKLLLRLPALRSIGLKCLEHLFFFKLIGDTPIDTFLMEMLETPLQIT

Amino acid sequences for entries named in this document (tags omitted). A change or cut given only in a name is not applied to a line headed by its entry.
UniProt P37231: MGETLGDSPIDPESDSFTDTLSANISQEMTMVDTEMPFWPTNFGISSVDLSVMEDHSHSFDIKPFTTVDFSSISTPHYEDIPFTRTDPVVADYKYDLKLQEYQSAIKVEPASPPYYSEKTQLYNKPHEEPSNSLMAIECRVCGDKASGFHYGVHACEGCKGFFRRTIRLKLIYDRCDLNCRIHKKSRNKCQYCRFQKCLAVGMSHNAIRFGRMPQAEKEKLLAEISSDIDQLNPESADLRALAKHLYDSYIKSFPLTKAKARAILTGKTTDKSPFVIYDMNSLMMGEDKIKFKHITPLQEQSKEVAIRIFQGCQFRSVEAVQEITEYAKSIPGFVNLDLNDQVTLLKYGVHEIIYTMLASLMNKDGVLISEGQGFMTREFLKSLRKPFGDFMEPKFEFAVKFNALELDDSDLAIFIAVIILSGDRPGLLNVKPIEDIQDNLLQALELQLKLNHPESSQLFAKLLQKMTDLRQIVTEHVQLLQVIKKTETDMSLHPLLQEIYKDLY

[3] = target: T3, Retinoic acid receptor RXR-alpha (Homo sapiens) (UniProt P19793); experiment: Agonist activity at recombinant human pFA-CMV fused RXRalpha LBD expressed in HEK293T cells transfected with pFR-luciferase plasmid and pRL-SV40 plasmid at 10 uM incubated for 14 to 16 hrs by dual glo luciferase reporter gene assay; format: cell-based; conditions: HEK-293T
T3 sequence (whole entry): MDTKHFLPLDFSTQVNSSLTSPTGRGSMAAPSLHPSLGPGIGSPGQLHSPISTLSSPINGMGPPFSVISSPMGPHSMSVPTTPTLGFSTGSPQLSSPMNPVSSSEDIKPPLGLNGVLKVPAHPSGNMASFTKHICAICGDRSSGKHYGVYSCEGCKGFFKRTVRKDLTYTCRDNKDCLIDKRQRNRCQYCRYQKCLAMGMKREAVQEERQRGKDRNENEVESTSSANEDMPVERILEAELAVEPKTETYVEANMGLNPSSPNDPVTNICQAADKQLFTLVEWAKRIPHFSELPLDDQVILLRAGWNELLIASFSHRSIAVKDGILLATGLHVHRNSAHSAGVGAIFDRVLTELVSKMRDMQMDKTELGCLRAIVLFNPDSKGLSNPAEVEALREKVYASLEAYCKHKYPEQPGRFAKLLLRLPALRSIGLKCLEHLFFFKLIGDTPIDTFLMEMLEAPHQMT

[4] = target: T3, Retinoic acid receptor RXR-alpha (Homo sapiens); experiment: Agonist activity at recombinant human pFA-CMV fused RXRalpha LBD expressed in HEK293T cells transfected with pFR-luciferase plasmid and pRL-SV40 plasmid incubated for 14 to 16 hrs by dual glo luciferase reporter gene assay relative to control; format: cell-based; conditions: HEK-293T
[5] = target: T4, Retinoic acid receptor RXR-beta (Homo sapiens) (UniProt P28702); experiment: Agonist activity at recombinant human pFA-CMV fused RXRbeta LBD expressed in HEK293T cells transfected with pFR-luciferase plasmid and pRL-SV40 plasmid at 10 uM incubated for 14 to 16 hrs by dual glo luciferase reporter gene assay; format: cell-based; conditions: HEK-293T
T4 sequence (whole entry): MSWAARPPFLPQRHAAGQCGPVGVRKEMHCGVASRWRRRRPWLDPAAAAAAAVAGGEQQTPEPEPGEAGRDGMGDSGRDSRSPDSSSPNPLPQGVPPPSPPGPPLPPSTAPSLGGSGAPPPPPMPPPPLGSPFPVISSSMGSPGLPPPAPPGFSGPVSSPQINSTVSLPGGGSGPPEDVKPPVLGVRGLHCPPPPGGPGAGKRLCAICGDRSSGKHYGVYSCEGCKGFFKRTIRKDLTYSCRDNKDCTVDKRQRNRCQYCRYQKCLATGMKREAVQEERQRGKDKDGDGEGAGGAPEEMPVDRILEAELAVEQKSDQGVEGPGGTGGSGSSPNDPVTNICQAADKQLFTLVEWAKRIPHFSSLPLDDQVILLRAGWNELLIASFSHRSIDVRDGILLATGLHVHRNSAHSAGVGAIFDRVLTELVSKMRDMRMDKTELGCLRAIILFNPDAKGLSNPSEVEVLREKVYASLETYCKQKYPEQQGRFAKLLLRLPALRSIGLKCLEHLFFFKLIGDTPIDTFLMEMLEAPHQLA

[6] = target: T1, Peroxisome proliferator-activated receptor gamma; experiment: Agonist activity at N-terminal GFP-fused PPARgamma LBD (unknown origin) assessed as biotin-labeled SRC-1 recruitment incubated for 2 hrs by HT-FRET assay relative to rosiglitazone
[7] = target: T1, Peroxisome proliferator-activated receptor gamma; experiment: Agonist activity at N-terminal GFP-fused PPARgamma LBD (unknown origin) assessed as biotin-labeled CBP recruitment incubated for 2 hrs by HT-FRET assay
[8] = target: T1, Peroxisome proliferator-activated receptor gamma; experiment: Agonist activity at N-terminal GFP-fused PPARgamma LBD (unknown origin) assessed as biotin-labeled CBP recruitment incubated for 2 hrs by HT-FRET assay relative to rosiglitazone

Activity [1]: Active
Activity [2]: Active
Activity [3]: Active
fold change (FC) [4]: 13
Activity [5]: Active
Activity [6]: Active
Activity [7]: Active
Activity [8]: Active
SMILES: O=C(O)Cc1cc(I)c(Oc2ccc(O)c(I)c2)c(I)c1 [TIRATRICOL]

Source: ChEMBL document CHEMBL4627384, “l-Thyroxin and the Nonclassical Thyroid Hormone TETRAC Are Potent Activators of PPARγ” (J Med Chem, 2020)
